The experiment has as its target human thrombopoietin receptor (c-mpl) (Homo sapiens, UniProt P40238). Put plainly: Stimulation of proliferation of thrombopoietin-dependent cell line UT7/EPO-mpl (WST-8). As to conditions: human leukemic cell line UT-7/EPO-mpl; 4 days incubation; relative to 10 ng/mL TPO. How it is done: The response of thrombopoietin receptor to the compound of Synthetic Example 2 of the present invention was assayed using a human leukemic cell line, UT7/EPO-mpl.
UT7/EPO-mpl is a stable transformed cell line obtained by introducing into human leukemic cell line UT7/EPO a vector that induces expression of human thrombopoietin receptor (c-mpl) under control of cytomegalovirus immediate-early promoter by the method of Takatoku et al. (J. Biol. Chem., 272:7259-7263 (1997)). […] These two cell lines were subcultured in IMDM (GIBCO) containing 10% fetal bovine serum (Thermo Electron or BioWest) using a CO2 incubator (5% CO2, 37° C.).
The subcultured cells described above were washed twice with PBS and suspended in IMDM containing 10% fetal bovine serum at a cell density of 6×10^4 cells/ml. The cell suspension was transferred to a 96-well tissue culture plate (CORNING) in 100-μl aliquots. Then either thrombopoietin (Pepro Tech EC, or the compound of Synthetic Example 2 dissolved in dimethyl sulfoxide was diluted 83-fold with IMDM containing 10% fetal bovine serum and added to the aforementioned cell suspension in 20-μl aliquots. The cell suspension was incubated in a CO2 incubator (5% CO2, 37° C.) for 4 days. Cell proliferation was assayed using WST-8 reagent (Kishida Chemical Co., Ltd.) according to instructions by the manufacturer. A 10-μl aliquot of 5 mM WST-8 reagent solution was added to each well of the tissue culture plate, and the plate was incubated at 37° C. for 4 hours. The formazan pigment generated was detected by measuring the absorbance at 450 nm with a 96-well microplate reader (Nihon Molecular Devices, Spectramax 190).
The compounds of the following Synthetic Examples were tested according to the method of Assay Example 1 to determine the concentration of each compound that yields a growth rate corresponding to 50% of the growth of human leukemic cell line UT-7/EPO-mpl observed in the presence of 10 ng/mL TPO (EC50).
Background: Tetrazolium assays rely on reduction of a dye to a coloured formazan, in cell work by metabolically active cells.

Protein sequences, listed by entry. Tags and fused reporters are not part of them. Residues count along the entry.
UniProt P40238, 26-635 limits assumed: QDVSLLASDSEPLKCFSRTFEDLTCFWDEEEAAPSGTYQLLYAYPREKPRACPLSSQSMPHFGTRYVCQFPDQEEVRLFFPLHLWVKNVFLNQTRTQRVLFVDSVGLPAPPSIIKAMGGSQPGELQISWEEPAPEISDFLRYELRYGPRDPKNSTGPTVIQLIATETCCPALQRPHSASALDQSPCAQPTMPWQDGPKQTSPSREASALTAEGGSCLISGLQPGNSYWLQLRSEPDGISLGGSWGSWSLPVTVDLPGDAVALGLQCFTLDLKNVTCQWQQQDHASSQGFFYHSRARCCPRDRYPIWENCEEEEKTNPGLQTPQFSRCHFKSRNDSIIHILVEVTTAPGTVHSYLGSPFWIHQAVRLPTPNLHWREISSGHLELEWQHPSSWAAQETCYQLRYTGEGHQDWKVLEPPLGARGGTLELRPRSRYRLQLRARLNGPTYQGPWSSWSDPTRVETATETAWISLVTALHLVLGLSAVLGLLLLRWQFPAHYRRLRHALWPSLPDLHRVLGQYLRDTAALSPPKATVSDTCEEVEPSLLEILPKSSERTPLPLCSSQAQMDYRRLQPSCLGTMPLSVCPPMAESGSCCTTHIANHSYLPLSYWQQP

Turning to `CC(=NNC(=O)c1ccc(C(=O)NCCN2CCCC2)s1)c1csc(-c2ccc(Cl)c(Cl)c2)c1O`, the “EC50 (concentration that yields a growth rate corresponding to 50% of the growth observed in the presence of 10 ng/mL TPO)” value is given as 2.7 ng/mL. Turning to `CC(=NNC(=S)Nc1ccc(Cl)c(C(=O)NCCC(=O)O)c1)c1nn(C)c(-c2ccc(C(F)(F)F)cc2)c1O`, the “EC50 (concentration that yields a growth rate corresponding to 50% of the growth observed in the presence of 10 ng/mL TPO)” value is recorded as 7.7 ng/mL. On to `CC(=NNC(=O)c1ccc(C(=O)NCC(=O)O)s1)c1csc(-c2ccc(Cl)c(Cl)c2)c1O`, for which the “EC50 (concentration that yields a growth rate corresponding to 50% of the growth observed in the presence of 10 ng/mL TPO)” value is 2.2 ng/mL. Take `C/C(=N\NC(=S)Nc1ccc2c(c1)OCC(=O)N2)c1nn(C)c(-c2ccc(C(F)(F)F)cc2)c1O`: the “EC50 (concentration that yields a growth rate corresponding to 50% of the growth observed in the presence of 10 ng/mL TPO)” value was 23 ng/mL.

As to `CC(=NNC(=S)Nc1ccc2c(c1)OCC(=O)N2)c1csc(-c2ccc(Cl)c(Cl)c2)c1O`, the “EC50 (concentration that yields a growth rate corresponding to 50% of the growth observed in the presence of 10 ng/mL TPO)” value was found to be 16 ng/mL. As for `C/C(=N\NC(=S)Nc1ccc2c(c1)OCCO2)c1csc(-c2ccc(Cl)c(Cl)c2)c1O`, the figure is 32 ng/mL. On to `CC(=NNC(=O)c1ccc(C(=O)NN2CCOCC2)s1)c1csc(-c2ccc(Cl)c(Cl)c2)c1O`, for which the “EC50 (concentration that yields a growth rate corresponding to 50% of the growth observed in the presence of 10 ng/mL TPO)” value is given as 0.35 ng/mL. As for `CC(=NNC(=O)c1ccc(C(=O)N(C)CCC(=O)O)s1)c1csc(-c2ccc(OC(F)(F)F)cc2)c1O`, the “EC50 (concentration that yields a growth rate corresponding to 50% of the growth observed in the presence of 10 ng/mL TPO)” value turned out to be 3.3 ng/mL.

With `CC(=NNC(=S)Nc1cccc(C(=O)NCCC(N)=O)c1)c1nn(C)c(-c2ccc(Cl)c(Cl)c2)c1O`, the “EC50 (concentration that yields a growth rate corresponding to 50% of the growth observed in the presence of 10 ng/mL TPO)” value is recorded as 3.1 ng/mL. Consider `C/C(=N\NC(=S)Nc1cccc(C(=O)NCCC(N)=O)c1)c1csc(-c2ccc(Cl)c(Cl)c2)c1O`, for which the “EC50 (concentration that yields a growth rate corresponding to 50% of the growth observed in the presence of 10 ng/mL TPO)” value turned out to be 2.9 ng/mL. As for `C/C(=N\NC(=O)c1ccc(C(=O)N2CC(O)C(O)C2)s1)c1csc(-c2ccc(C(F)(F)F)cc2)c1O` (stereo not drawn), the “EC50 (concentration that yields a growth rate corresponding to 50% of the growth observed in the presence of 10 ng/mL TPO)” value was 0.27 ng/mL. To `CC(=NNC(=O)c1ccc(C(=O)NN2CCCCC2)s1)c1csc(-c2ccc(Cl)c(Cl)c2)c1O` belongs 5.6 ng/mL. Turning to `CC(=NNC(=S)Nc1cccc(C(=O)NCCC(N)=O)c1)c1nn(C)c(-c2ccc(C(F)(F)F)cc2)c1O`, the “EC50 (concentration that yields a growth rate corresponding to 50% of the growth observed in the presence of 10 ng/mL TPO)” value came to 2.7 ng/mL. For the molecule `C/C(=N\NC(=O)c1ccc(C(=O)N2CCC(N3CCCC3)CC2)s1)c1csc(-c2ccc(Cl)c(Cl)c2)c1O`, the “EC50 (concentration that yields a growth rate corresponding to 50% of the growth observed in the presence of 10 ng/mL TPO)” value turned out to be 0.40 ng/mL.

For the molecule `CC(=NNC(=S)Nc1ccc2c(c1)NC(=O)CO2)c1csc(-c2ccc(Cl)c(Cl)c2)c1O`, the “EC50 (concentration that yields a growth rate corresponding to 50% of the growth observed in the presence of 10 ng/mL TPO)” value amounted to 16 ng/mL.

Regarding `C/C(=N\NC(=O)c1ccc(C(=O)NCCC(=O)O)s1)c1csc(-c2ccc(Cl)c(Cl)c2)c1O`, the “EC50 (concentration that yields a growth rate corresponding to 50% of the growth observed in the presence of 10 ng/mL TPO)” value turned out to be 2.3 ng/mL.

Regarding `C/C(=N\NC(=O)c1ccc(C(=O)Cn2ccc(=O)cc2)s1)c1csc(-c2ccc(Cl)c(Cl)c2)c1O`, the “EC50 (concentration that yields a growth rate corresponding to 50% of the growth observed in the presence of 10 ng/mL TPO)” value is 0.37 ng/mL. Regarding `CC(=NNC(=O)c1ccc(C(=O)NN)s1)c1csc(-c2ccc(Cl)c(Cl)c2)c1O`, the “EC50 (concentration that yields a growth rate corresponding to 50% of the growth observed in the presence of 10 ng/mL TPO)” value was determined as 1.5 ng/mL. Take `C/C(=N\NC(=O)c1ccc(C(=O)NCC2CCCO2)s1)c1csc(-c2ccc(Cl)c(Cl)c2)c1O` (stereo not drawn) [Synthetic Example 2, 5-{1-[5-(3,4-Dichlorophenyl)-4-hydroxythiophen-3-yl]ethylidenehydrazinocarbonyl}thiophene-2-carboxylic acid(tetrahydrofuran-2-ylmethyl)amide]: the “EC50 (concentration that yields a growth rate corresponding to 50% of the growth observed in the presence of 10 ng/mL TPO)” value came to 2.1 ng/mL. For `CC(=NNC(=O)c1ccc(C(O)CC(=O)O)cc1)c1csc(-c2ccc(Cl)c(Cl)c2)c1O` (stereo not drawn), the “EC50 (concentration that yields a growth rate corresponding to 50% of the growth observed in the presence of 10 ng/mL TPO)” value came out at 3.0 ng/mL. To `C/C(=N\NC(=O)c1ccc(C(=O)NN2CCN(C)CC2)s1)c1csc(-c2ccc(Cl)c(Cl)c2)c1O` belongs 3.1 ng/mL.
